Values of other authors, collected in patent publication US12379360B2, “Detection system for an electronic nose allowing a physicochemical classification of odours and electronic nose comprising such a system” (COMMISSARIAT À L'ÉNERGIE ATOMIQUE ET AUX ÉNERGIES …, priority 2019, dated 2025).

Details: pure compound

n (refractive index): 1.372
Compound: CC(=O)O [AcOH, acetic acid]
